Results published in ChEMBL document CHEMBL1146652, “Synthesis and CB1 receptor activities of novel arachidonyl alcohol derivatives” (Bioorg Med Chem Lett, 2004).

Amino acid sequences for entries named in this document (tags omitted).
UniProt P20272, whole entry: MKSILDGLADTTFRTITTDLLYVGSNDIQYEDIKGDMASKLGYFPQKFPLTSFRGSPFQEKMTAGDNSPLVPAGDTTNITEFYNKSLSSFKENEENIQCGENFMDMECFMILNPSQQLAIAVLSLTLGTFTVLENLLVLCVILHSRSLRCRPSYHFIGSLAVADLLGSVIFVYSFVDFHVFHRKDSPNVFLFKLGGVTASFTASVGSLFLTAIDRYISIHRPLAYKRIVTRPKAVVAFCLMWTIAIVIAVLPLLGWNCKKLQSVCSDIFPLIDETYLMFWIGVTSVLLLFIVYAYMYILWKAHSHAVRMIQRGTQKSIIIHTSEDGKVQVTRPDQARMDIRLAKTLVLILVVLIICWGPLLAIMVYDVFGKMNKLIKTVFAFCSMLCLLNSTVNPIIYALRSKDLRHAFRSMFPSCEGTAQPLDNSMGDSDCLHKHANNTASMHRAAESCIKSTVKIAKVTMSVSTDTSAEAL

Molecular target: Cannabinoid receptor 1 (Rattus norvegicus, UniProt P20272)
Assay: Cannabinoid receptor 1 dependent activity of compound was evaluated by using [35S]GTP-gamma-S-binding studies
Type: functional

For `CCCCC/C=C\C/C=C\C/C=C\C/C=C\CCCC(=O)NCCO` [ANANDAMIDE], the EC50 was 15.8 µM.
